Measurements: paper PMC3087822 (Nature structural & molecular biology, 2011)

Experiments:
[1] = target: rat Munc13-1(859–1407,1453–1531) fragment (MUN*) (rat, UniProt Q62768, in part, Munc13-1(859–1407,1453–1531)); experiment: NMR titration
[2] = target: full-length rat Munc18-1 (rat); experiment: NMR titration
[3] = target: cytoplasmic domain ([…]) of rat syntaxin-1A (rat); experiment: SEC
[4] = target: syntaxin-1 SNARE motif ([…]) (rat); experiment: assembly and ultrafiltration

B1: SNARE complex formed with syntaxin-1([…]), synaptobrevin([…]), SNAP-25([…]) and SNAP-25([…]) (complex)
chain 1: [skipping about 250 residues]
chain 2: NRRLQQTQAQVDEVVDIMRVNVDKVLERDQKLSELDDRADALQAGASQFETSAAKLKRKYWWKNL
chain 3: LEEMQRRADQLADESLESTRRMLQLVEESKDAGIRTLVMLDEQGEQLERIEEGMDQINKDMKEAEKNLTDLG
chain 4: ARENEMDENLEQVSGIIGNLRHMALDMGNEIDTQNRQIDRIMEKADSNKTRIDEANQRATKML
[1]
  Kd: 26 µM and 35 µM
[2]
  binding result: binds

B2: SNARE complex formed with syntaxin-1(191–253), synaptobrevin(29–93), SNAP-25(11–82) and SNAP-25(141–203) (complex)
chain 1: ALSEIETRHSEIIKLENSIRELHDMFMDMAMLVESQGEMIDRIEYNVEHAVDYVERAVSDTKK
chain 2: NRRLQQTQAQVDEVVDIMRVNVDKVLERDQKLSELDDRADALQAGASQFETSAAKLKRKYWWKNL
chain 3: LEEMQRRADQLADESLESTRRMLQLVEESKDAGIRTLVMLDEQGEQLERIEEGMDQINKDMKEAEKNLTDLG
chain 4: ARENEMDENLEQVSGIIGNLRHMALDMGNEIDTQNRQIDRIMEKADSNKTRIDEANQRATKML
[1]
  Kd: 28 ± 5 µM

B3: human SNAP25 (residues 141–203) (domain or fragment)
chain: ARENEMDENLEQVSGIIGNLRHMALDMGNEIDTQNRQIDRIMEKADSNKTRIDEANQRATKML
[3]
  binding result: binds
[4]
  binding result: binds

“And” between values parts separate entries of the source, which are not always exact repeats. Identical values can stand only once.
